Laboratory results reported in US8754031B2, “Use of prolactin receptor antagonists in combination with an agent that inactivates the HER2/neu signaling pathway” (Oncolix, Inc., priority 2004, dated 2014).

How the values were obtained:
[1] = test system: Stat5a/b phosphorylation in T-47D cells; assay: Inhibition of phosphorylation of Stat5a/b, Western blot; type: cell-based, human; details: 48 hours, 10 μg, in the presence of hPRL 100 ng/ml (FIG. 6)
Method: FIG. 6. […] T-47D cells were cultured overnight at 60% confluency and were maintained in phenol red-free and serum-free RPMI-1640 for 72 hours before stimulation. […] Lane A is the control cells that are untreated. […] Activation of Stat5 was analyzed by WB with anti-phospho-specific antibodies in 50 μg protein extracts.

T-47D cells = assay: Cell proliferation, ViaCount reagent and Guava PCA cytometer (viable cells); type: cell-based, human; details: 24 hours of treatment, G129R 1 μg/ml, HERCEPTIN 20 μg/ml (FIG. 3)
Method: FIG. 3. […] The y-axis represents percent viable cells after each treatment.
This assay permits the determination of the number of total and viable cells in cultures. Cell proliferation was determined as a measure of the number of viable cells after 24 hours of treatment (FIG. 3).

HERCEPTIN® (trastuzamab): humanized monoclonal antibody directed to the HER2 ectodomain (Genentech) [reference compound]
inhibition of Stat5a/b phosphorylation [1]: but not
decrease in proliferative ability / cell number compared to untreated control cells (T-47D cells): 54%
